Tests used:
Skeletonema costatum = conditions: in vivo
Acartia tonsa = conditions: in vivo

polyaspartate [aspartic acid based polymer]
Skeletonema costatum EC50 72h (Skeletonema costatum): >10,000 mg/L | Acartia tonsa EC50 48h (Acartia tonsa): >9,000 mg/L

Reference: US9914869B2, “System and method for inhibiting scale formation in oil wells” (GLOBAL GREEN PRODUCTS LLC, priority 2012, dated 2018)
